Values of other authors in patent US6841561B1, “Dihydroorotate dehydrogenase inhibitors for the treatment of viral-mediated diseases” (priority 1999, dated 2005).

Experiments:
[1] = test system: Hep2 cells; settings: cited from earlier work
[2] = 1.5×10^6 IU injected subcutaneously into the back of a rabbit of about 2 kg, cited from earlier work
[3] = test system: human hepatoblastoma cell line (HepG2); settings: actinomycin D omitted; cited from earlier work

human interferon β
effectiveness relative to betaseron in protecting cells against a viral challenge [1]: about 2.2 times | interferon detectable in the serum after 1 hour ([2]; 1 hour): ≥ 128 IU/ml | interferon detectable in the serum after 5 hours ([2]; 5 hours): ≥ 64 IU/ml | antiviral activity relative to natural interferon β from primary diploid human fibroblast cells [3]: about 1.5 times
